Earlier results in publication PMC6556434 (Nature genetics, 2018).

Tested on: PHD finger of EBS
Details: cited from earlier work

H3K4me2: histone H3(1–15) peptide with K4me2, used in ITC and in crystal structure with EBSΔC
binding to the PHD finger of EBS in vitro (in words): bind
